In publication PMC4980677 one finds EC50 data, which are given here for two variants.

The labels stand for the following.
B1: SAMHD1_(115-626) WT (HD domain construct of human SAMHD1) [human] / itself (parent)
chain: MKVINDPIHGHIELHPLLVRIIDTPQFQRLRYIKQLGGGYYVFPGASHNRFEHSLGVGYLAGCLVHALGEKQPELQISERDVLCVQIAGLCHDLGHGPFSHMFDGRFIPLARPEVKWTHEQGSVMMFEHLINSNGIKPVMEQYGLIPEEDICFIKEQIVGPLESPVEDSLWPYKGRPENKSFLYEIVSNKRNGIDVDKWDYFARDCHHLGIQNNFDYKRFIKFARVCEVDNELRICARDKEVGNLYDMFHTRNSLHRRAYQHKVGNIIDTMITDAFLKADDYIEITGAGGKKYRISTAIDDMEAYTKLTDNIFLEILYSTDPKLKDAREILKQIEYRNLFKYVGETQPTGQIKIKREDYESLPKEVASAKPKVLLDVKLKAEDFIVDVINMDYGMQEKNPIDHVSFYCKTAPNRAIRITKNQVSQLLPEKFAEQLIRVYCKKVDRKSLYAARQYFVQWCADRNFTKPQDGDVIAPLITPQKKEWNDSTSVQNPTRLREASKSRVQLFKDDPM

The variants in this test derive from B1. Nature of the test: sedimentation velocity analytical ultracentrifugation (van Holde-Weischet analysis), tetramer fraction against nucleotide concentration. The settings on record: with itself, read off a plot.
[1] abbreviates: GTP titrated with dATP concentration held constant (concentration not given).
Where [2] appears, read: dATP titrated in the presence of 10 μM GTP.

A word on the EC50: it is the midpoint of the concentration-response curve. Turning to chain 1 D197A, the concentration giving a half-maximal response (EC50) under setting [1] is 20 µM and the EC50 under setting [2] was 15 µM.
In the same order, the values of chain 1 D197A T478D are 9.5 µM and 28 µM.
